What was measured:
[1] = target: soluble human BACE1 catalytic domain (Homo sapiens (Human), UniProt P56817); assay: BACE1 HTRF FRET Assay; type: biochemical; conditions: Ki calculated from IC50 with Cheng-Prusoff equation;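 note: cleavage of a quenched APP Swedish mutant peptide (QSY7 quencher, Europium donor) measured as rise in 620 nm fluorescence after 1.5 h at 30 °C, inhibition suppresses signal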
[2] = target: BACE1 (Aβ40 in HEK293-APPswe/lon cells) (Homo sapiens (Human), UniProt P56817); assay: BACE Inhibitor Whole Cell IC50 Determination Using HEK293-APPswe/lon Cells (Aβ40); type: cell-based; conditions: 4 hours

Sequences of proteins named here, by UniProt entry; tags and fusion partners are left off. Residues count along the entry.
UniProt P56817, 75-416: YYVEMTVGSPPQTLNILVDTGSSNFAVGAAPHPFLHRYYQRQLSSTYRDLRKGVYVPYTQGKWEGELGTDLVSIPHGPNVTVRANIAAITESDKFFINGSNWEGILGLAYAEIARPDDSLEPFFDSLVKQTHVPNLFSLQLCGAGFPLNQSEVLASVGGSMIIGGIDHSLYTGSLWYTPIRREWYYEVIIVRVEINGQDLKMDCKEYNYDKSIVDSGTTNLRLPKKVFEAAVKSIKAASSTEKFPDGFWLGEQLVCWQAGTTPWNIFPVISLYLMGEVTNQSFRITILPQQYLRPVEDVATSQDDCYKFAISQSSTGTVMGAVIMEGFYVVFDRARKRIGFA
UniProt P56817, 46-501: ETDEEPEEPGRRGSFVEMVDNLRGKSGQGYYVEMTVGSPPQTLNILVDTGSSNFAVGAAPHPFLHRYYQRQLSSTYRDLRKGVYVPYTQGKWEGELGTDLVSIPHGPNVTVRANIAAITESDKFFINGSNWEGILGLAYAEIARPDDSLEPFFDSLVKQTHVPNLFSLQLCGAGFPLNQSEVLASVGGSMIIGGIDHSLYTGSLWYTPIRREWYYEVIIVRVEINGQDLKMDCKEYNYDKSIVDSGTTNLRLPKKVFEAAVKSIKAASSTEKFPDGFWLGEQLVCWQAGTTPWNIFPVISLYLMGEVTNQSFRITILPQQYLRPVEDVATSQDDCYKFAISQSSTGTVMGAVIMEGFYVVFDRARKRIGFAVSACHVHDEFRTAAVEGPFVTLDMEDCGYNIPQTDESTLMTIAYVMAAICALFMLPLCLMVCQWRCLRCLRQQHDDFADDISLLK

Ki [1]: 59 nM
IC50 [2]: 323 nM
SMILES: CCOc1nc(N2C[C@H]3C(=O)N(C)C(N)=N[C@@]3(c3ccccc3)C2)nc(C)c1F (racemic) [4 racemic]
